This is a selection; strong and weak results do not stand in their true shares. Some results for these compounds are left out of this collection, so the calls shown say nothing about other tests. Results filed as inconclusive are left out. Activity calls are given as the source filed them. The call rests on the fitted dose curve; in most records, active means well fitted inhibition curve with a large enough effect; inconclusive means small, poorly fitted or top-dose-only effect, or another doubt; inactive means no such curve, though single readings can be large or run the other way.
assay: qHTS Assay for Inhibitors of Hepatitis C Virus (HCV); details: Huh7.5.1 HCVcc-Cre (HCVcc is cell-culture hepatitis C virus) infection, luciferase reporter, 44 h; at 41.8 µM (top of the series)
From the text: Hepatitis C virus (HCV) infects about 200 million people in the world. Many infected people progress to chronic liver disease including cirrhosis with a risk of developing liver cancer. To date, there is no effective vaccine for hepatitis C. Current therapy based on interferon is only effective in about half of the patients and is associated with significant adverse effects. The fraction of people with HCV who can complete a successful treatment is estimated to be no more than 10 percent. Recent development of direct-acting antivirals against HCV, such as protease and polymerase inhibitors, is promising but still requires combination with peginterferon and ribavirin for maximal efficacy. In addition, these agents are associated with high rate of resistance and many have significant side effects. Due to the lack of a culture system for infectious HCV, the search for new HCV drugs has been greatly hampered. […]
The assay will start with plating 1,000 cells/well in 3 µL volume and culture for 4 h. […] A volume of 4.5 µL luciferase substrates will be added to each well and the plates will be incubated at room temperature for 15 min. and then read for 15 sec. for the luciferase activity
On the % scale 0 is the no-effect control and ±100 the full control effect.

Row | SMILES | activity change, negative = inhibition
1 | C=CCN1CCN(CCOC(=O)C(O)(c2ccccc2)c2ccccc2)CC1 | inactive: 11.9%
2 | CC(C)N1C(=O)CC2(CCN(CCOC(=O)C(O)(c3ccccc3)c3ccccc3)CC2)C1=O | inactive: 12%

From PubChem BioAssay AID651820 (National Center for Advancing Translational Sciences (NCATS), 2012)
